Values quoted from earlier work, collected in patent US20130084312A1, “NANOPARTICLES FOR DELIVERY OF BIOACTIVE AGENTS” (ROSE PHARMACEUTICALS, LLC, priority 2011, published 2013).

Amino acid sequences for entries named in this document (tags omitted).
UniProt P32238, whole entry: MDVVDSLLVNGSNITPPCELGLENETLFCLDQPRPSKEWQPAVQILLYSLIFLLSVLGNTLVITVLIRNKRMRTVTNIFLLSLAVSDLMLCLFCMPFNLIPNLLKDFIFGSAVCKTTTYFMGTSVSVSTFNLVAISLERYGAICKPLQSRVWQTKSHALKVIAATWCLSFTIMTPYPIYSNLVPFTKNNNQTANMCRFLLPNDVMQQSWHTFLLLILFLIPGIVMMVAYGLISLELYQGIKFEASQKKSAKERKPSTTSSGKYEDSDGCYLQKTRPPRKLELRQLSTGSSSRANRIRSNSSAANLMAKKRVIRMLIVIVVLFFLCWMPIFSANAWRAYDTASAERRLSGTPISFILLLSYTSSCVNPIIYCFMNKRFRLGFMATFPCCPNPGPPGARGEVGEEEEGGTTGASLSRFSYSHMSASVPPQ

Key:
[1] = target: CCKA receptors (Homo sapiens, UniProt P32238); conditions: relative to sulfated CCK-8
[2] = target: T1, CCKB receptors (Homo sapiens, UniProt P32239)
T1 sequence (P32239 1-447): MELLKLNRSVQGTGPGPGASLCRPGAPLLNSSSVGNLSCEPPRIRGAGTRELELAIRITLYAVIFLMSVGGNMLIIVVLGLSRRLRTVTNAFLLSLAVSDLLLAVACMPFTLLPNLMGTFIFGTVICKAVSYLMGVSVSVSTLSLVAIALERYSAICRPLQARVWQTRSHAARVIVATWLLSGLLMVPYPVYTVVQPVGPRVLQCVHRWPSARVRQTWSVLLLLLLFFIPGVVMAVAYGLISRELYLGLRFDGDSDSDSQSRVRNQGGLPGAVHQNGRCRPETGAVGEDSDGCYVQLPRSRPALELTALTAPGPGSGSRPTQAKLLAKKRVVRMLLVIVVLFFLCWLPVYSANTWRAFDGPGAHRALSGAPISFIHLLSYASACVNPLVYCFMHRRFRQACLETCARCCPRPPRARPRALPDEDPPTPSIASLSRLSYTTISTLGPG

[3] = target: T2, CCK receptor, homogenates from the cerebral cortex (Homo sapiens, UniProt P32239)
T2 construct: host or cells: cerebral cortex homogenates
T2 sequence (P32239 1-447): T1 sequence (P32239 1-447)

Substance: Trp-Met-Asp-Phe-NH2 [CCK-4]
- fold lower affinity for CCKA receptors than the sulfated form of CCK-8 [1]: 10,000 fold
- affinity for CCKB receptors [2]: high affinity and selectivity
- concentration displacing CCK receptor binding relative to sulfated CCK-8 [3]: equimolar, 10-fold or 100-fold greater
